Literature values, collected in patent publication US5714499A, “3-amino-2-oxo-1-piperidineacetic derivatives containing an arginine mimic as enzyme inhibitors” (Corvas International, Inc., priority 1994, dated 1998).

Target: human alpha-thrombin
Settings: Table 4, human alpha-thrombin; literature; cited from earlier work

CC1CNc2c(cccc2S(=O)(=O)N[C@@H](CCCNC(=N)N)C(=O)N2CC[C@@H](C)C[C@@H]2C(=O)O)C1 (stereo partly drawn) [Argatroban, 2R,4R-4-methyl-1-[N-2-(3-methyl-1,2,3,4-tetrahydro-8-quinolinesulfonyl)-L-argininal]-2-piperdinecarboxylic acid, reference compound]
Ki: 0.019 µM
